Measured values as given in patent US20030176351A1, “Peptides and peptide analogues designed from a diabetes-associated autoantigen, and methods for their use in the treatment and prevention of diabetes” (priority 1999, published 2003).

Tested on: T cell clone BRI.4-10
Assay: prepulse antagonism assay, response to GAD65 555-567, clone BRI.4-10
Format: cell-based, human
Conditions: clone BRI.4-10, APC pre-pulsed with agonist peptide 555-567

Row | SMILES | effect on T cell proliferative response (in words)
1 | CCCC[C@H](NC(=O)[C@H](CCCNC(=N)N)NC(=O)[C@H](Cc1ccccc1)NC(=O)[C@H](Cc1ccccc1)NC(=O)[C@@H](N)CC(N)=O)C(=O)N[C@H](C(=O)N[C@H](C(=O)N[C@@H](CO)C(=O)N[C@@H](CC(N)=O)C(=O)N1CCC[C@H]1C(=O)N[C@@H](C)C(=O)N[C@@H](C)C(=O)N[C@H](C(=O)O)[C@@H](C)O)[C@@H](C)CC)C(C)C [559 Nle] | no effect
2 | CC[C@H](C)[C@H](NC(=O)[C@@H](NC(=O)[C@H](CCSC)NC(=O)[C@H](CCCNC(=N)N)NC(=O)[C@H](Cc1ccccc1)NC(=O)[C@H](Cc1ccccc1)NC(=O)[C@@H](N)CC(N)=O)C(C)C)C(=O)N[C@@H](CO)C(=O)N[C@@H](CCC(N)=O)C(=O)N1CCC[C@H]1C(=O)N[C@@H](C)C(=O)N[C@@H](C)C(=O)N[C@H](C(=O)O)[C@@H](C)O [563 Q] | no effect
